Assay results as given in EP2078717A1, “6-Pyrimidinyl-pyrimid-2-one derivative” (sanofi-aventis, priority 2008, dated 2009).

Assay: Inhibitory activity on CYP2D6 (human recombinant CYPs, luciferin substrate)

IC50: 2300 nM
Structure (SMILES): Cn1c(N2CCOC(c3ccc(-c4ccoc4)cc3)C2)nc(-c2ccncn2)cc1=O (stereo not shown) [compound 3, 2-[2-(4-Furan-3-yl-phenyl)-morpholin-4-yl]-1-methyl-1H-[4,4']bipyrimidinyl-6-one]
